Source: PubChem BioAssay
An excerpt weighted towards active compounds, which were near 2.5% of everything screened.
rTrxR1 inhibitor: inhibitors of rat thioredoxin reductase 1 | Potency, µM (highest dose often 114 µM), for inactives: at the highest dose activity change, negative = inhibition, usual class: inhibitors | 390,000 tested, 1% active | recombinant rTrxR1, NADPH fluorescence consumption, selenite substrate; note: potency is the fitted concentration of half-maximal effect; % is set by controls: 0 for no effect and ±100 for the full control effect; nearly all actives have a fitted effect of over 65% in size
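Rat TrxR1 (90 nM in the dispensed reagent) was pre-reduced with 400 uM NADPH for 5 min at room temperature, then incubated with compound for 15 min. After 400 uM selenite was added, NADPH fluorescence (Ex 340/Em 450 nm) was followed for 8 min.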
ClpP mod: qHTS Assay for Activators of ClpP | ATP-dependent Clp protease proteolytic subunit (Bacillus subtilis (strain 168)), P80244 | Potency, µM (top dose mostly 57.5 µM), for the others: at the highest dose activity change, negative = active | AID 651965, 2013 | purified B. subtilis ClpP, FRET peptide cleavage, 20 min | 340,000 tested, 1.9% active; active = well fitted falling curve with a large enough effect; inconclusive = small, poorly fitted or top-dose-only effect; inactive = no such curve, though single readings can be large or run the other way; note: potency is the fitted concentration of half-maximal effect; the source files actives as falling curves though it sought activators and does not explain the sign; nearly all actives have a fitted effect of over 65% in size
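ClpP 10 microg/mL final, pH 8 Tris/KCl buffer with BSA, glycerol, Tween-20; compound pinned in; FRET-FV substrate; RT 20 min; Ex320/Em430; ΔFRET vs ADEP 5.8 microM, DMSO, no enzyme.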
miR-21 reporter: raises the signal of a miR-21 reporter; Potency, µM (doses to about 38.3 µM), inactives show top-dose reporter change, positive = more light; HeLa miR-21 FLuc reporter, luciferase, 48 h; AID 2288; 340,000 tested, under 10 active; active = well fitted rising curve with a large enough effect; inconclusive = small, poorly fitted or top-dose-only effect; inactive = no such curve, though single readings can be large or run the other way;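 further: % of control where 0% means no effect; miR-21 action dims this reporter so a rising signal means less miR-21 action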
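HeLa cells stably expressing CMV-driven firefly luciferase with a downstream miR-21 binding sequence, endogenously expressing miR-21, were treated with titrations (up to about 40uM final) for 48 hours at 37 degree Celsius. Luciferase luminescence was read after lysis.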
TrxR1 substrate: substrates of rat thioredoxin reductase 1. O89049. purified TrxR1 substrate turnover, NADPH consumption readout. Potency, µM (top dose mostly 114 µM), without a hit: top-dose activity change, negative = substrate turnover. 390,000 tested, 0.01% active. AID 588456; note: potency is the fitted concentration of half-maximal effect; % is set by controls: 0 for no effect and ±100 for the full control effect; nearly all actives have a fitted effect of over 50% in size
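Rat TrxR1, dispensed at 90 nM, was prereduced with 400 uM NADPH (final) for 5 min at ~22 deg C, then incubated with compound 15 min before 400 uM selenite. A first-read NADPH fluorescence drop versus no-compound background flagged substrates.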
Anesthetic bind: candidate novel general anesthetic via apoferritin binding | P02791 | apoferritin/1-aminoanthracene competitive binding, fluorescence | Potency, µM (doses to about 77.5 µM), inactives show at the top dose activity change, negative = displacement, most hits filed as inhibitors | 350,000 tested, 0.074% active | AID 485281; note: potency is the fitted concentration of half-maximal effect; % is set by controls: 0 for no effect and ±100 for the full control effect; nearly all actives have a fitted effect of over 20% in size
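Concentration-response curves derived by four-parameter Hill fitting of normalized fluorescence, where compounds displaced 1-AMA from 10 uM horse apoferritin following a brief 10 min room-temperature incubation; propofol titration acted as positive control.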
Active calls of the source: *; ? = inconclusive; . = no result given; [ ] = another dose, or the depositor's remark. Unless noted, calls come from the whole dose curve; as a rule, active = well fitted curve in the direction sought with a large enough effect; inconclusive = small, poorly fitted or top-dose-only effect, or another doubt; inactive = no such curve, though single readings can be large; an effect the other way counts as inactive or inconclusive.

(1) COC(=O)c1scc(-c2ccc(C)cc2)c1S(=O)(=O)N1CCN(c2cccc(Cl)c2)CC1
(2) c1ccc(Oc2nc3ccccc3n3cccc23)cc1
(3) Cc1nnc2c(Oc3ccccc3)nc3ccccc3n12
(4) Cc1ccc(Oc2nc3ccccc3n3cccc23)cc1
(5) Cc1ccc(OCCn2c(C)nc3ccccc32)cc1
(6) CC(C)(Oc1ccc(Cl)cc1)C(=O)Nc1nc2ccc(S(C)(=O)=O)cc2s1
(7) CC1(C)Cc2cccc(OCC(=O)OCC(=O)Nc3ccc(C(N)=O)cc3)c2O1
(8) COc1ccc(C(C)=O)cc1COc1cccc2c1OC(C)(C)C2

Assay by compound,1,2,3,4,5,6,7,8
rTrxR1 inhibitor,10%[57.1 µM],6%,10%[57.1 µM],17%[57.1 µM],6%,16%,6%,32µM*
ClpP mod,-1%,28µM*,-3%,22µM*,.,-1%,25µM*,1%
miR-21 reporter,9%,-3%,1%,2%,7%,4%,.,-5%
TrxR1 substrate,-5%[57.1 µM],15%,10%[57.1 µM],12%,7%,-8%,2%,9%
Anesthetic bind,-18%,-16%,-10%,-1%,-23%,-13%,.,-3%

(9) CC(C)c1ccc(NC(=O)C2CCN(S(=O)(=O)c3cccc4nsnc34)CC2)cc1
(10) Cc1c(Cl)c([N+](=O)[O-])nn1CCCC(=O)N1CCN(c2ccccc2)CC1
(11) Cc1c(Br)c([N+](=O)[O-])nn1CCCC(=O)N1CCN(c2ccccc2)CC1
(12) CSc1ccc(/C=C/c2ccnc3ccccc23)cc1
(13) COc1cc(-c2nc(-c3ccc(NC(=O)c4ccc5c(c4)OCO5)cc3)no2)cc(OC)c1OC
(14) Cc1coc2cc3oc(=O)c(CCC(=O)NCc4ccc(Cl)cc4)c(C)c3cc12
(15) c1ccc(C(c2nnnn2C2CCCCC2)N2CCc3ccccc3C2)nc1 (stereo not drawn)
(16) CC(C)C(c1nnnn1C1CCCCC1)N1CCc2ccccc2C1 (stereo not drawn)

Assay by compound,9,10,11,12,13,14,15,16
rTrxR1 inhibitor,19%,-1%[57.1 µM],-21%,19%[0.0914 µM],32%[57.1 µM],31%,-27%,-6%
ClpP mod,1%,1%,14µM*,-1%,20µM*,?,2.5µM*,0%
miR-21 reporter,-2%,-4%,-13%,.,-41%,2%,-7%,5%
TrxR1 substrate,-2%,1%[57.1 µM],-11%,12%[0.0914 µM],9%[57.1 µM],19%,128%,12%
Anesthetic bind,-7%,?,-8%,.,3%,-12%,-14%,-16%

(17) CCc1cccc(NC(=O)CCN2C(=O)c3ccccc3Sc3ncccc32)c1
(18) Cc1ccc(C)c(NC(=O)CCN2C(=O)c3ccccc3Sc3ncccc32)c1
(19) CC(C)NC(=O)CCN1C(=O)c2ccccc2Sc2ncccc21
(20) O=C(CCN1C(=O)c2ccccc2Sc2ncccc21)Nc1ccc(F)cc1
(21) Oc1ccc(Cl)cc1C1C=C(c2ccc3c(c2)OCO3)NC(c2cc(Br)ccc2F)N1 (stereo not drawn)
(22) CC(C)C1NC2(C(=O)c3ccccc3C2=O)C2C(=O)N(c3ccc(F)cc3)C(=O)C12 (stereo not drawn)
(23) O=C1[C@@H]2C(c3cccnc3)=NO[C@@H]2C(=O)N1c1ccc(Br)cc1
(24) Cc1ccc(N2C(=O)[C@@H]3C(c4cccnc4)=NO[C@@H]3C2=O)c(C)c1

Assay by compound,17,18,19,20,21,22,23,24
rTrxR1 inhibitor,18µM*,50µM*,24%,7.1µM*,?,45µM*,28µM*,13%
ClpP mod,-2%,-1%,1%,-3%,.,1%,0%,-2%
miR-21 reporter,3%,?,-1%,2%,.,0%,1%,-1%
TrxR1 substrate,-1%,5%,4%,-6%,-1%[0.457 µM],5%,6%[57.1 µM],-1%
Anesthetic bind,1%,-3%,-1%,7%,.,-10%,-10%,2%

Look-ups from the list:
Anesthetic bind result of no. 6 = -13%
miR-21 reporter result of no. 20 = 2%
ClpP mod result of no. 7 = 25µM*

More compounds follow.
(25) CCOc1ccc(C(=O)NCCn2cc(SCC(=O)Nc3ccccc3)c3ccccc32)cc1
(26) CCS(=O)(=O)c1ncc(N(Cc2ccco2)Cc2sccc2C)c(C(=O)Nc2cc(C)ccc2C)n1
(27) Cc1ccc(CNC(=O)c2ccc(Cn3nc(C)c(Cl)c3C)o2)cc1
(28) O=C(Nc1ccc(S(=O)(=O)N2CCCCCC2)cc1)c1[nH]ncc1[N+](=O)[O-]
(29) O=C(Nc1ccc([N+](=O)[O-])cc1)c1ccc(S(=O)(=O)N2CCCC2)cc1
(30) CC(C)(C)NC(=O)C(c1ccc(Cl)cc1)N(Cc1ccco1)C(=O)CCl (stereo not drawn)
(31) O=C(/C=C/c1ccccc1)N1CCOCC1
(32) O=C(/C=C/c1ccccc1)CCN1CCOCC1

Assay by compound,25,26,27,28,29,30,31,32
rTrxR1 inhibitor,32%[11.4 µM],0%,40µM*,.,10%,13µM*,29%,0.56µM*
ClpP mod,-3%,-1%,-2%,.,.,1%,-1%,-2%
miR-21 reporter,?,2%,-4%,-53%,5%,0%,-19%,.
TrxR1 substrate,-4%,-4%,6%,.,-4%,4%,4%,1%
Anesthetic bind,38%,?,?,13µM*,4%,-8%,0%,.

(33) O=C(O)C(=O)/C(=C\c1ccccc1)c1ccc2ccccc2n1
(34) O=C(O)C(=O)/C(=C\c1cccc2ccccc12)c1ccc2ccccc2n1
(35) CCC(=O)N1CCc2cc(S(=O)(=O)NC(CC(C)C)C(=O)Nc3cc(C)ccc3OC)ccc21 (stereo not drawn)
(36) Cc1cccc(N=c2oc3cc(O)ccc3cc2C(N)=O)c1
(37) CC(C)=CCN1CCN(Cc2cccn2-c2ccccn2)CC1CCO (stereo not drawn)
(38) N#Cc1c(C(F)(F)F)cc(-c2cccs2)nc1SCC(=O)Nc1ccc(F)cc1
(39) CC(C)(C)C(=O)Nc1ccc2oc(-c3cc(F)c(F)cc3Cl)nc2c1
(40) O=C(Nc1ccc2oc(-c3ccccc3F)nc2c1)c1ccccc1Cl

Assay by compound,33,34,35,36,37,38,39,40
rTrxR1 inhibitor,2%,-24%,15%,43%,-53%,-5%,-7%,26%
ClpP mod,?,16µM*,-2%,28µM*,28µM*,4%,32µM*,4%
miR-21 reporter,-56%,-12%,-2%,-6%,0%,-22%,-57%,-16%
TrxR1 substrate,3%,3%,3%,69%[57.1 µM],11%[57.1 µM],73%,17%,15%
Anesthetic bind,-6%,-12%,?,235%,-2%,9%,-8%,-10%

(41) NC1CCc2ccc([N+](=O)[O-])cc21 (stereo not drawn)
(42) O=C(Nc1ccc(F)cc1)N(Cc1ccco1)Cc1cc2cc3c(cc2[nH]c1=O)OCO3
(43) O=C(Nc1ccc(F)cc1)N(Cc1cccs1)Cc1cc2cc3c(cc2[nH]c1=O)OCO3
(44) CCCCNC(=O)[C@@H]1CC=C[C@@H]2CCN(CCCC)C(=O)[C@@H]21
(45) CCc1cccc(NC(=O)C(CC)n2nc(C)c3sc4ccccc4c3c2=O)c1 (stereo not drawn)
(46) O=C(N/N=C/c1cn(-c2cccs2)nc1-c1ccccc1)c1ccccc1Cl
(47) O=C(N/N=C/c1cn(-c2cccs2)nc1-c1ccccc1)c1ccc(O)cc1
(48) Cc1ccc(CN2C(=O)c3ccccc3NC2c2ccccn2)cc1 (stereo not drawn)

Assay by compound,41,42,43,44,45,46,47,48
rTrxR1 inhibitor,13%,44%,26%,0%,85%,2%,-9%,9%[57.1 µM]
ClpP mod,-1%,32µM*,32µM*,2%,-4%,22µM*,-17%,.
miR-21 reporter,.,12%,20%,.,-37%,-4%,14%,-7%
TrxR1 substrate,-3%,44%,24%,-3%,67%,4%,-9%,72%
Anesthetic bind,.,-4%,6%,.,7%,2%,-6%,8%

3 entries from above in another layout:
| no. | SMILES | rTrxR1 inhibitor | ClpP mod | miR-21 reporter | TrxR1 substrate | Anesthetic bind |
| --- | --- | --- | --- | --- | --- | --- |
| 45 | CCc1cccc(NC(=O)C(CC)n2nc(C)c3sc4ccccc4c3c2=O)c1 (stereo not drawn) | 85% | -4% | -37% | 67% | 7% |
| 48 | Cc1ccc(CN2C(=O)c3ccccc3NC2c2ccccn2)cc1 (stereo not drawn) | 9%[57.1 µM] | . | -7% | 72% | 8% |
| 46 | O=C(N/N=C/c1cn(-c2cccs2)nc1-c1ccccc1)c1ccccc1Cl | 2% | 22µM* | -4% | 4% | 2% |
